Among the data in ChEMBL document CHEMBL3751750, “2-Amino-4-bis(aryloxybenzyl)aminobutanoic acids: A novel scaffold for inhibition of ASCT2-mediated glutamine transport” (Bioorg Med Chem Lett, 2016) are IC50 values, retold here.

Assay [1] deals with T1, Neutral amino acid transporter B(0) (Homo sapiens, UniProt Q15758).
T1 sequence (Q15758 whole entry): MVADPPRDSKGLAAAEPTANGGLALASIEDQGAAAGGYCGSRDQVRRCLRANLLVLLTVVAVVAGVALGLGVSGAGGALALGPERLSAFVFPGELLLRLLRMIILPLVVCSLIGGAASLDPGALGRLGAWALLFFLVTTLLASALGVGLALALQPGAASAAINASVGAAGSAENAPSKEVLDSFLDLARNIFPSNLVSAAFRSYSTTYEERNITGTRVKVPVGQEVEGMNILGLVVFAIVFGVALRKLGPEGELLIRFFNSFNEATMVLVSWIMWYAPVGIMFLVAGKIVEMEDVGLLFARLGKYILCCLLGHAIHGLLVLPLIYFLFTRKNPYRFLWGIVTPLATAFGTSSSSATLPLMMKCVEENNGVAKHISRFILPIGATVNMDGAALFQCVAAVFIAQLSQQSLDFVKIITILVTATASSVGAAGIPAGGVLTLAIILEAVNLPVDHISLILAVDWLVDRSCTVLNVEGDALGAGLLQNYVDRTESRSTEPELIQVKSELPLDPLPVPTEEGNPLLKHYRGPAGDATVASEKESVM
Briefly: Inhibition of ASCT2-mediated glutamine transport in human HEK293 cells using [3H]-glutamine after 15 mins by scintillation counting. Format: cell-based.

Assay [2] addresses T2, Amino acid transporter (Rattus norvegicus, UniProt Q9Z1J7).
T2 sequence (Q9Z1J7 whole entry): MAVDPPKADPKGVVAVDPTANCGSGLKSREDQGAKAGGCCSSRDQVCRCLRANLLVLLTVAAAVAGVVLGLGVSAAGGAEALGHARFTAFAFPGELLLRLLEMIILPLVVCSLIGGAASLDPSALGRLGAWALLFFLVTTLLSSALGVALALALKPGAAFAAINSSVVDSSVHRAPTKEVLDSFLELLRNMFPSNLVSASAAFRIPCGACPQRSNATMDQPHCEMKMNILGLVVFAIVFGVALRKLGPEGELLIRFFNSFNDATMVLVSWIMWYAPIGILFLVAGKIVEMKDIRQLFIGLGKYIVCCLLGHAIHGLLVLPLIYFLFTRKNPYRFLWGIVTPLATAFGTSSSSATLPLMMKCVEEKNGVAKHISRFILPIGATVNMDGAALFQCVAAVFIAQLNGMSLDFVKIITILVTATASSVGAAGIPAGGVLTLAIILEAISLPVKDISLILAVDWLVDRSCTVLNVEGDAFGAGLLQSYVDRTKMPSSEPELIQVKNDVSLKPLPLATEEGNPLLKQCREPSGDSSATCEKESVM
Briefly: Inhibition of ASCT2-mediated glutamine transport in rat C6 cells using [3H]-glutamine after 15 mins by scintillation counting. Format: cell-based.

pIC50: −log10 of the molar value.

As for `N[C@@H](CCN(Cc1ccccc1OCc1cccc(C(F)(F)F)c1)Cc1ccccc1OCc1cccc(C(F)(F)F)c1)C(=O)O`, the pIC50 is 4.75 in assay [1] and 4.65 in assay [2].
